Source: ChEMBL document CHEMBL1126154, “Pyrrole mannich bases as potential antipsychotic agents” (J Med Chem, 1992)

Chains of the proteins cited; added tags and fusions are not shown. Lines headed by an entry give the natural chain unless they say otherwise; changes in a name come on top.
UniProt P19327, whole entry: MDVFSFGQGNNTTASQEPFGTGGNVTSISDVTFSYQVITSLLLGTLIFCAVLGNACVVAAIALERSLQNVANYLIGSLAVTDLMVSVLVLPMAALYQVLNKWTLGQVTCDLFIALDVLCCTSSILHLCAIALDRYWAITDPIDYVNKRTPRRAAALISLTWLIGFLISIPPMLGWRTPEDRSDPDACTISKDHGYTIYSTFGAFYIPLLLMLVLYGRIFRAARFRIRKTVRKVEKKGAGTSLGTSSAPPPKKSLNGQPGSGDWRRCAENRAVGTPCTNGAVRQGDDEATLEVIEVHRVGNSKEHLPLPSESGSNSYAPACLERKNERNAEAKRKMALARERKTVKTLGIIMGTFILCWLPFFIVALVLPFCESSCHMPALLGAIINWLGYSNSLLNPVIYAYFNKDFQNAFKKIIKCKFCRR
UniProt P30994: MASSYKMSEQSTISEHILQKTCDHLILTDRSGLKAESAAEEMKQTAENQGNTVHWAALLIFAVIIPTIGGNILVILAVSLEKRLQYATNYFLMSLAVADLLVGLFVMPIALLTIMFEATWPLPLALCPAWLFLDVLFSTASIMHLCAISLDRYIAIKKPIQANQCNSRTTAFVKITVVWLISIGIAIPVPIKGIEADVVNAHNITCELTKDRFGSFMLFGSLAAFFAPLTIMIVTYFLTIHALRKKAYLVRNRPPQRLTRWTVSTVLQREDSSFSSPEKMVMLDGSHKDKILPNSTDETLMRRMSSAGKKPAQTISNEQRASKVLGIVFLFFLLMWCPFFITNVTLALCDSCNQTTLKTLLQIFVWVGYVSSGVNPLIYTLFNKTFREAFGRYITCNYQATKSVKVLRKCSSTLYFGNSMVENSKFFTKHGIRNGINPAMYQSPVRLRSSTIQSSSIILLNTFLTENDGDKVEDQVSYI
UniProt P08909: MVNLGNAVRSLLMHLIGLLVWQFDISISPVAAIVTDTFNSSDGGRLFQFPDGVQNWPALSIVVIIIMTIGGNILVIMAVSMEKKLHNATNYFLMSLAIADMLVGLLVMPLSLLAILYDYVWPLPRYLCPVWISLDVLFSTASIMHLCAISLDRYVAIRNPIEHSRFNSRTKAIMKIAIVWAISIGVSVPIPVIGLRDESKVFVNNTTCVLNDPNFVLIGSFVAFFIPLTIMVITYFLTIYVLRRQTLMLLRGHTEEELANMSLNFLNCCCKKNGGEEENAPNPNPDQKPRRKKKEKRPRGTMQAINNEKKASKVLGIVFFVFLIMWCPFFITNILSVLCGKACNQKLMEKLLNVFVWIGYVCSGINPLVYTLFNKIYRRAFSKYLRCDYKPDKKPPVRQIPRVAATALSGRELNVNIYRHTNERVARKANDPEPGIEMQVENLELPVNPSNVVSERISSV
UniProt P14842: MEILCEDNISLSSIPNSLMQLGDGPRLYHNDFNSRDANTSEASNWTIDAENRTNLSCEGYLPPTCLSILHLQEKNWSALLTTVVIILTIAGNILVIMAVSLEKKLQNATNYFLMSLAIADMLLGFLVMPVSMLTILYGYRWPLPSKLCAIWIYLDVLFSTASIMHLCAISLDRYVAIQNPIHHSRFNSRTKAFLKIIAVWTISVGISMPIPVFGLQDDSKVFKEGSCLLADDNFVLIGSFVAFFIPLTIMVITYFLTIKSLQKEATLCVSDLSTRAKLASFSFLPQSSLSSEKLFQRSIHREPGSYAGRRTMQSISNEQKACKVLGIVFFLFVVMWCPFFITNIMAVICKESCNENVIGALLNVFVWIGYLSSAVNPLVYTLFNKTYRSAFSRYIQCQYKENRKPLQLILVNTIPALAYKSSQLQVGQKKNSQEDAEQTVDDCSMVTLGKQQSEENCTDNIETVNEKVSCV

Columns and labels:
[1] = molecular target: 5-hydroxytryptamine receptor 1A (Rattus norvegicus, UniProt P19327); experiment: Binding affinity towards 5-hydroxytryptamine 1A receptor by displacing [3H]WB-4101 from rat hippocampus; format: tissue-based
[2] = molecular target: Serotonin 2 (5-HT2) receptor (Rattus norvegicus, UniProt P30994+P08909+P14842); experiment: The compound was tested for its binding affinity towards 5-hydroxytryptamine 2 receptor by displacing [3H]ketanserin radioligand in rat cerebral cortex; format: tissue-based

Row | Ki [1] [µM] | Ki [2] [µM] | Compound
1 | 0.0343 | – | Cn1c(CN2CCN(c3cccc(Cl)c3)CC2)ccc1CN1CCCCC1=O
2 | – | 0.00026 | Cc1nc2sccn2c(=O)c1CCN1CCC(=C(c2ccc(F)cc2)c2ccc(F)cc2)CC1 [RITANSERIN]
